# AlphaSeq binding of Ab-14 light chain variants to a spike HR2 peptide

The measurements come from Li et al. 2023 (doi:10.1038/s41467-023-39022-2) through the FLAb antibody collection.

Target peptide (SARS-CoV-2 spike, HR2 region): PDVDLGDISGINAS

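The parent was found by panning a naive human phage display library on the peptide. This is the validation round: designs drawn from the data on random variants, tested in the same kind of assay. Group labels follow the data file (Ctrl: baseline library sampled from a position-specific scoring matrix, with some repeated check sequences; GP: Gaussian process model; Gen: genetic algorithm; a sequence that several methods proposed may carry one label only). The scFvs were displayed on barcoded MATa yeast, the peptide on MATalpha yeast. Binding brings cells together so that they mate, and sequencing counts the barcode pairs among the diploids. The ratio of observed to expected reads was calibrated, replicate by replicate, on BCL2-family standards whose Kd was known from biolayer interferometry. The assay was run in six technical replicates.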

Each scFv is VH, a 15-residue (Gly4Ser)3 linker, VL, as in the parent Ab-14, and differs from it in the CDRs of the light chain only.
VH: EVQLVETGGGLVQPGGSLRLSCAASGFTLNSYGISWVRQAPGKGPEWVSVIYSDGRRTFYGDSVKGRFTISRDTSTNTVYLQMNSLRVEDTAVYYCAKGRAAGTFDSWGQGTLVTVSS
VL: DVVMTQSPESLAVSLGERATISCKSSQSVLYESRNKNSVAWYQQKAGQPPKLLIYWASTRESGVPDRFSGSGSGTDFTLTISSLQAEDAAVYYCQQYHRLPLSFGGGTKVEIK

Variants are written as CDR1, CDR2 and CDR3 of the light chain (limits as in the source). Parent: KSSQSVLYESRNKNSVA, WASTRES, QQYHRLPLS.
The read-out is the apparent dissociation constant on a log10 scale (nM): the lower, the stronger.
"n.d." means that the variant was in the library but no mating with the target was seen in that replicate; the authors take this as a sign of poor binding, and no number exists.
The range of this assay differs from that of the first round, and the authors advise against merging the two.

{"CDR-L1": "KSSQSVLYESRNHNSVA", "CDR-L2": "TASTREE", "CDR-L3": "QQYHRLPLS", "group": "Ctrl", "log10 Kd, replicates": "1.24 / 1.37 / 1.18 / 1.06 / 1.09 / 1.04", "control signals": "1/18 (3.15)"}
{"CDR-L1": "KSSQSVLIESRNKNSVA", "CDR-L2": "HASTRES", "CDR-L3": "QQYHHLPLS", "group": "Ctrl", "log10 Kd, replicates": "0.98 / 1.31 / 0.86 / 0.68 / 1.23 / 1.30", "control signals": "0/18"}
{"CDR-L1": "KSSQSVLYESWNKNSVA", "CDR-L2": "EASTRES", "CDR-L3": "QQYHRLPLS", "group": "Ctrl", "log10 Kd, replicates": "2.18 / 2.32 / 2.14 / 2.33 / 2.10 / 2.80", "control signals": "0/18"}
{"CDR-L1": "KSSQSVLYEGRYKNAVA", "CDR-L2": "EASTRES", "CDR-L3": "QQYHRLPLS", "group": "Ctrl", "log10 Kd, replicates": "0.96 / 0.88 / 0.83 / 0.86 / 1.48 / 1.01", "control signals": "1/18 (2.32)"}
{"CDR-L1": "KSSQSVLYESRNKNSVA", "CDR-L2": "DCSTRES", "CDR-L3": "QPYHRLPLS", "group": "Ctrl", "log10 Kd, replicates": "1.71 / 1.29 / 1.63 / 0.59 / 1.43 / 1.85", "control signals": "1/18 (1.45)"}
{"CDR-L1": "QSSQSDPYEWRNKNSVA", "CDR-L2": "WASTREP", "CDR-L3": "QQYHRLPLE", "group": "Ctrl", "log10 Kd, replicates": "n.d. / n.d. / n.d. / n.d. / n.d. / n.d.", "control signals": "0/18"}
{"CDR-L1": "KSSQDVLYETRNKNSVA", "CDR-L2": "GASTREE", "CDR-L3": "QQYIRPPLS", "group": "Ctrl", "log10 Kd, replicates": "n.d. / n.d. / n.d. / 1.59 / n.d. / n.d.", "control signals": "1/18 (1.46)"}
{"CDR-L1": "KSPQSVLYESRNKNSVA", "CDR-L2": "SASTRQS", "CDR-L3": "QQYHRLPLS", "group": "Ctrl", "log10 Kd, replicates": "0.68 / 0.32 / 0.31 / 0.43 / 0.32 / 0.57", "control signals": "0/18"}
{"CDR-L1": "KSSLSVLYESRNKNSVA", "CDR-L2": "WASTRES", "CDR-L3": "QQYHMLPLS", "group": "Ctrl", "log10 Kd, replicates": "n.d. / n.d. / n.d. / 1.43 / n.d. / 2.90", "control signals": "0/18"}
{"CDR-L1": "KSSQSVLMESRNKNSVA", "CDR-L2": "WASTREE", "CDR-L3": "QQYHRLPLS", "group": "Ctrl", "log10 Kd, replicates": "n.d. / n.d. / n.d. / 1.08 / 0.66 / 1.16", "control signals": "0/18"}
{"CDR-L1": "ESSQSVLSESRNKNSVA", "CDR-L2": "EASTRES", "CDR-L3": "QQYHRLPLS", "group": "Ctrl", "log10 Kd, replicates": "0.69 / 0.59 / 0.19 / 0.23 / 0.61 / 0.50", "control signals": "0/18"}
{"CDR-L1": "KSSQSVLEESRNKGSVA", "CDR-L2": "DESTRES", "CDR-L3": "QQYARLPLS", "group": "Ctrl", "log10 Kd, replicates": "1.59 / 3.01 / 1.81 / 1.99 / 1.75 / 1.79", "control signals": "0/18"}
{"CDR-L1": "KISQSWLYESRNKNSVA", "CDR-L2": "NASTRES", "CDR-L3": "QQYHRLPLS", "group": "Ctrl+GP_Gen", "log10 Kd, replicates": "-0.09 / -0.35 / -0.56 / -0.33 / -0.41 / -0.19; -0.01 / -0.19 / -0.14 / -0.28 / -0.15 / 0.04", "control signals": "4/36 (3.17)"}
{"CDR-L1": "KLQQSWLYESRNKNSVA", "CDR-L2": "WASTRES", "CDR-L3": "QQYHRLPLS", "group": "Ctrl", "log10 Kd, replicates": "1.42 / 0.97 / 1.39 / 0.96 / 1.44 / 1.28", "control signals": "1/18 (2.65)"}
{"CDR-L1": "KSSQNVLYESRAKNSVA", "CDR-L2": "MASTRES", "CDR-L3": "QQYHRLPLS", "group": "Ctrl", "log10 Kd, replicates": "1.48 / 1.87 / 2.41 / 1.11 / 1.62 / 2.83", "control signals": "0/18"}
{"CDR-L1": "KYSQSVLYESRNFNSVA", "CDR-L2": "WASTRES", "CDR-L3": "QQYHRLPLS", "group": "Ctrl", "log10 Kd, replicates": "1.65 / 0.55 / 0.44 / 2.05 / 1.32 / 1.45", "control signals": "0/18"}
{"CDR-L1": "KSNTSVLYESRNKNSVA", "CDR-L2": "WKSTRWS", "CDR-L3": "QQYHRLPLS", "group": "Ctrl", "log10 Kd, replicates": "n.d. / n.d. / n.d. / n.d. / 3.06 / n.d.", "control signals": "1/18 (0.76)"}
{"CDR-L1": "KSNQSVLYESRNKNNVA", "CDR-L2": "AASTRES", "CDR-L3": "QQYHRLPLS", "group": "Ctrl", "log10 Kd, replicates": "n.d. / 1.54 / 1.03 / 1.42 / 1.12 / 1.15", "control signals": "0/18"}
{"CDR-L1": "KLSQSVLYESNNKNSVA", "CDR-L2": "WASTRES", "CDR-L3": "QQYHRLPLS", "group": "Ctrl", "log10 Kd, replicates": "0.40 / 1.32 / 1.49 / 2.57 / 2.35 / 2.15", "control signals": "1/18 (1.42)"}

Excerpt, the first 3 entries:

{"CDR-L1": "KSSQSVLYESRNHNSVA", "CDR-L2": "TASTREE", "CDR-L3": "QQYHRLPLS", "group": "Ctrl", "log10 Kd, replicates": "1.24 / 1.37 / 1.18 / 1.06 / 1.09 / 1.04", "control signals": "1/18 (3.15)"}
{"CDR-L1": "KSSQSVLIESRNKNSVA", "CDR-L2": "HASTRES", "CDR-L3": "QQYHHLPLS", "group": "Ctrl", "log10 Kd, replicates": "0.98 / 1.31 / 0.86 / 0.68 / 1.23 / 1.30", "control signals": "0/18"}
{"CDR-L1": "KSSQSVLYESWNKNSVA", "CDR-L2": "EASTRES", "CDR-L3": "QQYHRLPLS", "group": "Ctrl", "log10 Kd, replicates": "2.18 / 2.32 / 2.14 / 2.33 / 2.10 / 2.80", "control signals": "0/18"}

Where one sequence has several entries in the source, the replicates are listed entry by entry, parted by semicolons.
The authors' rule: three or more of the six replicates give a measured affinity, fewer mean a poor binder.
Background: pairings of all light chain designs with three empty control strains gave a value in 4% of cases (median 2.64, 5th percentile 1.59). Values in that range, when seen in few replicates, are hard to tell from nonspecific mating. For each scFv, signals with the empty controls are counted beside the result, with their mean in brackets.